Test results as given in ChEMBL document CHEMBL1131447 (J Med Chem, 1998).

Amino acid sequences for entries named in this document (tags omitted).
UniProt P18901, whole entry: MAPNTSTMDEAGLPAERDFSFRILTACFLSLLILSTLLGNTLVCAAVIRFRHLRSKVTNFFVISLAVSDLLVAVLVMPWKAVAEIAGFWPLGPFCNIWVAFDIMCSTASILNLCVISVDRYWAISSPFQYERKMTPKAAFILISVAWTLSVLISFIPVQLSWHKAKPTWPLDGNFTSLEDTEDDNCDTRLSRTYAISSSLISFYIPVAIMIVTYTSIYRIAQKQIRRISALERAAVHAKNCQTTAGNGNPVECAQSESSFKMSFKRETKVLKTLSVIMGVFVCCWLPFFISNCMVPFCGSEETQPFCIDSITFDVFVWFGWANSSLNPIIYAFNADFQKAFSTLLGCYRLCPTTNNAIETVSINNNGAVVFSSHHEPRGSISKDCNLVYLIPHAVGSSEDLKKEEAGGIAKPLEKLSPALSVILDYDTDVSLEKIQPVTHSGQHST

Target: D(1A) dopamine receptor (Rattus norvegicus, UniProt P18901)
Assay: biochemical

SMILES: Cc1nc2n(c(=O)c1CCN1CCC(c3noc4cc(F)ccc34)CC1)CCCC2 [RISPERIDONE]
- Ki: 251 nM
